The numbers were not newly measured in patent publication US12138351B2, “Pharmaceutical composition for oral administration comprising aminopyrimidine derivative or pharmaceutically acceptable salt, hydrate, or solvate thereof” (Janssen Biotech, Inc., priority 2020, dated 2024), which cites them from elsewhere.

For this data set the following is noted: compared to the compound in the form of free-base.

As for “N-(5-(4-(4-((dimethylamino)methyl)-3-phenyl-1H-pyrazol-1-yl)pirimidine-2-ylamino)-4-methoxy-2-morpholinophenyl)acrylamide mesylate [Lazertinib mesylate]”, the solubility entry is recorded as “excellent”.
